Assay results as given in patent US11123292B2, “Use of biocompatible microdroplets for the treatment of atherosclerosis, heart disease and stroke” (priority 2014, dated 2021).

Columns and labels:
[1] = Relative Energy Difference (RED) with cholesterol, calculated from HSP; conditions: RED=Ra/Ro, Ro of cholesterol 12.6
[2] = 37° C.; cited from earlier work

Butanol [reference compound]
Relative Energy Difference (RED) with cholesterol [1]: 0.944
mass fraction of cholesterol which will dissolve in a pure solution of the alcohol [2]: 11.8%
